The numbers were not newly measured in patent publication US20200352917A1, “MEDICATED SPRAY FOR TREATMENT OF SUBSTANCE ABUSE, OVERDOSE, ADDICTION AND IMPULSE CONTROL DISORDERS” (published 2020), which cites them from elsewhere.

For the data set the following is noted: water and aqueous alcohol, in the form of a salt such as a hydrochloride.

`C=CCN1CC[C@]23c4c5ccc(O)c4O[C@H]2C(=O)CC[C@@]3(O)[C@H]1C5`: the solubility entry is on record as “freely soluble”.
